In US20230295106A1 (priority 2019, published 2023) one finds EC50 and IC50 data, which are given here for two compounds.

Sequences of proteins named here, by UniProt entry; tags and fusion partners are left off. Residues count along the entry.
UniProt P28335, whole entry I156V/N158S/I160V: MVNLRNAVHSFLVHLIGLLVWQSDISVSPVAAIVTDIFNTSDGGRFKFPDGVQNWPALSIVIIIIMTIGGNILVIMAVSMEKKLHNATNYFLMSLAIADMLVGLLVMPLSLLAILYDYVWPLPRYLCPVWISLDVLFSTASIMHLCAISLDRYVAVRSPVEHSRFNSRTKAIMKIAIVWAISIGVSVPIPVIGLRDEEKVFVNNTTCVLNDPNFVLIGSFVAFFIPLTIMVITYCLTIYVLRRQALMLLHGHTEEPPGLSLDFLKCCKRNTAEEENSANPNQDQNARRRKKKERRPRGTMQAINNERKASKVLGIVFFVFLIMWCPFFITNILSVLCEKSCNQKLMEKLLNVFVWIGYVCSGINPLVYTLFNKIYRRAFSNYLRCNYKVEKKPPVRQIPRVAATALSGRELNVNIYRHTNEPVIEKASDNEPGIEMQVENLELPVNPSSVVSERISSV
UniProt P28335, 33-458 I156V/N158S/I160V limits assumed: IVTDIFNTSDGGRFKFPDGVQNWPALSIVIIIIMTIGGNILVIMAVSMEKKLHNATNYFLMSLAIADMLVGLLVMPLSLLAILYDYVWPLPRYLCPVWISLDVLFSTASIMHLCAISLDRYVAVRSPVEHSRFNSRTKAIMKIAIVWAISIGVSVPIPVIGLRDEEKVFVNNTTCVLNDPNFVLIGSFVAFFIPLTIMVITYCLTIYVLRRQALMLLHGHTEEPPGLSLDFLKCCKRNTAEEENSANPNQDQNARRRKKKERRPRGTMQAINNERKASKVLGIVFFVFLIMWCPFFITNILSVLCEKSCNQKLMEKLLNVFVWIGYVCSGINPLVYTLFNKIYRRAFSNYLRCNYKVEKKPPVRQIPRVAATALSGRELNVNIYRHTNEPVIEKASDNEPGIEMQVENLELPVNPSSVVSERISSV

pEC50, pIC50: −log10 of the molar value.

Assay [1] addresses human recombinant 5-HT2C edited receptor (accession number AAF35842.1) (Homo sapiens, UniProt P28335, I156V/N158S/I160V). Nature of the assay: Serotonin 5-HT2C in vitro cellular IPOne agonism assay (HTRF). Particulars: read-out: 5-HT2C IPOne Agonism Activity; CHO-K1 cells, 60 min at 37° C.
In assay [2] the target is 5-HT2C edited (accession number AAF35842.1) (Homo sapiens, UniProt P28335, I156V/I160V/N158S). The experiment in a line: Serotonin 5-HT2C in vitro radioligand binding competition assay ([3H]-DOI). Particulars: read-out: 5-HT2C Radioligand Binding Activity; competition with [3H]-DOI, membrane extracts.

Regarding `CCN(CC)C(=O)C1C=C(c2c(OC)cccc2OC)CN(C)C1` (single isomer, unassigned) [Compound 3], in assay [1], the pEC50 was below 5.00. Also, the pIC50 in assay [2] is below 5.00.

Take `CCN(CC)C(=O)C1C=C(c2c(OC)cccc2OC)CN(C)C1` (single isomer, unassigned) [Compound 4]: the pEC50 in assay [1] was 5.00 to 6.00. Moreover, in assay [2], the pIC50 was below 5.00.
